From paper PMC4669970 (Biochemical pharmacology, 2015)

Amino acid sequences for entries named in this document (tags omitted). Residues count along the entry.
UniProt P06276, 29-602: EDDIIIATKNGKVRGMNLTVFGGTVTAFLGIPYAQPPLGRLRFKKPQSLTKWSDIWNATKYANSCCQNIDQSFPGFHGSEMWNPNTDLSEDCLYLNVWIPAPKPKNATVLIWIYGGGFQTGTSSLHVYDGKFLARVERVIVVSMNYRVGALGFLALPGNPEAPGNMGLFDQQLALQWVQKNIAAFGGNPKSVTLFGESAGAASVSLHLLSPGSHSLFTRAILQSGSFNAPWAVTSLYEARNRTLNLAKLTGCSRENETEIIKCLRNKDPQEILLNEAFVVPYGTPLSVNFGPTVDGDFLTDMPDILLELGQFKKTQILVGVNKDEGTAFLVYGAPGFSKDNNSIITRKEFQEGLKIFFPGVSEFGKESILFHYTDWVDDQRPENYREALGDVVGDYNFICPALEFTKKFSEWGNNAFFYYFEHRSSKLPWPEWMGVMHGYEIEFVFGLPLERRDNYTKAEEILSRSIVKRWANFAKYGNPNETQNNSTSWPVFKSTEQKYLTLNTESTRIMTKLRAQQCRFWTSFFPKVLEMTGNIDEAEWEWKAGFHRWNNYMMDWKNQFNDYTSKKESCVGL

Target: human BChE (Homo sapiens, UniProt P06276)
Assay: Inhibition of BChE-catalysed ghrelin hydrolysis by BChE-specific inhibitors
Format: biochemical
Settings: parallel assays, modest concentrations of inhibitor

Structure (SMILES): CC(C)NP(=O)(NC(C)C)OP(=O)(NC(C)C)NC(C)C [iso-OMPA]
- effect on BChE ghrelin hydrolysis reactions: stopped those reactions completely
